From patent publication US7928140B2, “Benzothiazole PI3 kinase modulators for cancer treatment” (Amgen Inc., priority 2007, dated 2011) come the findings set out here.

By UniProt entry, the sequences of proteins in these tests, tags left out.
UniProt P42336, whole entry, species assumed: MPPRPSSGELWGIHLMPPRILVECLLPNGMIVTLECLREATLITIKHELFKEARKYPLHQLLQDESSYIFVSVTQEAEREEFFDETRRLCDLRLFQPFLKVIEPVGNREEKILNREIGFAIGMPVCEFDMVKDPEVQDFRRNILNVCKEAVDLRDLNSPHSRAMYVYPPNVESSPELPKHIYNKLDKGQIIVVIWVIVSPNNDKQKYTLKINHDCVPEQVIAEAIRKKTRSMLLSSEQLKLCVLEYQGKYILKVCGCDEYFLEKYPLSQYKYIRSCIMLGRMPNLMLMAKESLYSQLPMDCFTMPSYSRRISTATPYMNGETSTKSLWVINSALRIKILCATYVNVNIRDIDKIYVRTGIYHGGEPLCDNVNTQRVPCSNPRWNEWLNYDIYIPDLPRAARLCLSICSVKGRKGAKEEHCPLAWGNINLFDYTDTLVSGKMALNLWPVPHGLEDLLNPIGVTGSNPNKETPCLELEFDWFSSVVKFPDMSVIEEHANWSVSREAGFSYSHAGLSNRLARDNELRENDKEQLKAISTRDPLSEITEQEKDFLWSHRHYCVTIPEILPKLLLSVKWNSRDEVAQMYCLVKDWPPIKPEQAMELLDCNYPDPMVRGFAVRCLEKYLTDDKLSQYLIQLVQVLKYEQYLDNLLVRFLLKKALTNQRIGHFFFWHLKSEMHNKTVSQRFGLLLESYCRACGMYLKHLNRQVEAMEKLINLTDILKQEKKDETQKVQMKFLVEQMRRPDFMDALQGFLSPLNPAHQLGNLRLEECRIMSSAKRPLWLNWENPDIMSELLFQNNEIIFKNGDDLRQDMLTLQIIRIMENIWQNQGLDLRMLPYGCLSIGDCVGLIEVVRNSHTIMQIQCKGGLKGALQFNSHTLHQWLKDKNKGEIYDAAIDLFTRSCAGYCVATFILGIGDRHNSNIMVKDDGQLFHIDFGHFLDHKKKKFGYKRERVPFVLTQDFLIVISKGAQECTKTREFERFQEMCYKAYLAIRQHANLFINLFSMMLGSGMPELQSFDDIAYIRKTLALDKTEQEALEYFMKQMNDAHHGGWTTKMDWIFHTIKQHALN

Structures are written as SMILES.

For this assay, the target named is T1, PI3K α (Homo sapiens, UniProt P42336).
T1 construct: Full length p110 subunits of PI3K α, β and δ, N-terminally labeled with polyHis tag; polyHis (N); made in house; host or cells: Sf9 insect cells (baculovirus)
Description: In vitro PI3 kinase enzyme assay (alpha), ATP loss, bioluminescence.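 Note: purified p110α/p85 heterodimer acting on PtdIns(4,5)P2 at room temperature, remaining ATP read by luminescence, inhibition scaled between compound-free wells with and without enzyme.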 It is filed as biochemical. To be noted: read-out: PI3Kα ATP loss IC50. The procedure:
The compound in DMSO (1 μL) was added per test well, and the inhibition relative to reactions containing no compound, with and without enzyme was determined.
For the compound `CC(=O)Nc1nc2ccc(-c3cccc(N(C)S(=O)(=O)c4ccc(C)cc4)n3)cc2s1` [Example 74, N-(6-(6-(N,4-Dimethylphenylsulfonamido)pyridin-2-yl)benzo[d]thiazol-2-yl)acetamide], the IC50 – broadly, the concentration that gives 50% inhibition – was 32.9 nM.

As to `CC(=O)Nc1nc2ccc(-c3ccnc(NS(=O)(=O)c4ccc(F)cc4)n3)cc2s1` [Example 80, N-(6-(2-(((4-fluorophenyl)sulfonyl)amino)-4-pyrimidinyl)-1,3-benzothiazol-2-yl)acetamide], the IC50 was determined as 41.6 nM. As to `CC(=O)Nc1nc2ccc(-c3ccnc(NS(=O)(=O)c4ccccc4F)n3)cc2s1` [Example 81, N-(6-(2-(((2-fluorophenyl)sulfonyl)amino)-4-pyrimidinyl)-1,3-benzothiazol-2-yl)acetamide], the IC50 amounted to 36.5 nM. Then `CC(=O)Nc1nc2ccc(-c3ccnc(NS(=O)(=O)c4cccc(F)c4)n3)cc2s1` [Example 82, N-(6-(2-(((3-fluorophenyl)sulfonyl)amino)-4-pyrimidinyl)-1,3-benzothiazol-2-yl)acetamide], with 77.3 nM; and `CCN(c1nccc(-c2ccc3nc(NC(C)=O)sc3c2)n1)S(=O)(=O)c1ccc(OC)cc1` [Example 89, N-(6-(2-(N-Ethyl-4-methoxyphenylsulfonamido)pyrimidin-4-yl)benzo[d]thiazol-2-yl)acetamide], with 283 nM.

Take `CC(=O)Nc1nc2ccc(-c3ccnc(Cl)n3)cc2s1` [Example 105, N-(6-(2-chloro-4-pyrimidinyl)-1,3-benzothiazol-2-yl)acetamide]: the IC50 came to 1700 nM.

Regarding `COc1ccc(S(=O)(=O)Nc2cc(-c3ccc4nc(NC(C)=O)sc4c3)cnc2C)cc1` [Example 116, N-(6-(5-(((4-methoxyphenyl)sulfonyl)amino)-6-methyl-3-pyridinyl)-1,3-benzothiazol-2-yl)acetamide], the IC50 was 7.5 nM. Then `COc1ccc(S(=O)(=O)Nc2cncc(-c3ccc4nc(NC(C)=O)sc4c3)n2)cc1` [Example 118, N-(6-(6-(((4-methoxyphenyl)sulfonyl)amino)-2-pyrazinyl)-1,3-benzothiazol-2-yl)acetamide], with 8.4 nM; and `CC(=O)Nc1nc2ccc(-c3cnc(Cl)c(NS(=O)(=O)c4cccc(C(F)(F)F)c4)c3)cc2s1` [Example 172, N-(6-(6-chloro-5-(3-(trifluoromethyl)phenylsulfonamido)pyridin-3-yl)benzo[d]thiazol-2-yl)acetamide], with 6.3 nM; and `CC(=O)Nc1nc2ccc(-c3cnc(Cl)c(NS(=O)(=O)c4cccc(C(C)(C)C)c4)c3)cc2s1` [Example 173, N-(6-(5-(3-tert-butylphenylsulfonamido)-6-chloropyridin-3-yl)benzo[d]thiazol-2-yl)acetamide], with 6.1 nM. Then `CC(=O)Nc1nc2ccc(-c3cnc(Cl)c(NS(=O)(=O)c4ccc(Cl)cc4)c3)cc2s1` [Example 180, N-(6-(6-chloro-5-(4-chlorophenylsulfonamido)pyridin-3-yl)benzo[d]thiazol-2-yl)acetamide], with 4.9 nM. In the case of `CC(=O)Nc1nc2ccc(-c3cnc(Cl)c(NS(=O)(=O)c4cccc(F)c4)c3)cc2s1` [Example 183, N-(6-(6-chloro-5-(3-fluorophenylsulfonamido)pyridin-3-yl)benzo[d]thiazol-2-yl)acetamide], the IC50 worked out at 6.6 nM. `CC(=O)Nc1nc2ccc(-c3cnc(Cl)c(NS(=O)(=O)c4cccc(Cl)c4)c3)cc2s1` [Example 185, N-(6-(6-chloro-5-(3-chlorophenylsulfonamido)pyridin-3-yl)benzo[d]thiazol-2-yl)acetamide]: the IC50 came to 6 nM. For `CC(=O)Nc1nc2ccc(-c3cnc(Cl)c(NS(=O)(=O)c4ccc(C(F)(F)F)cc4)c3)cc2s1` [Example 190, N-(6-(6-chloro-5-(4-(trifluoromethyl)phenylsulfonamido)pyridin-3-yl)benzo[d]thiazol-2-yl)acetamide], the IC50 came to 4.9 nM.

On to `CC(=O)Nc1nc2ccc(-c3cnc(Cl)c(NS(=O)(=O)c4ccc(C(C)(C)C)cc4)c3)cc2s1` [Example 191, N-(6-(5-(4-tert-butylphenylsulfonamido)-6-chloropyridin-3-yl)benzo[d]thiazol-2-yl)acetamide], for which the IC50 worked out at 3.6 nM. Then `COc1ccc(S(=O)(=O)Nc2cncc(-c3ccc4nc(NC(C)=O)sc4c3)c2)cc1` [Example 195, N-(6-(5-(4-methoxyphenylsulfonamido)pyridin-3-yl)benzo[d]thiazol-2-yl)acetamide], with 7.8 nM; and `COc1ccc(S(=O)(=O)Nc2cc(-c3ccc4nc(NC(C)=O)sc4c3)ccn2)cc1` [Example 217, N-(6-(2-(4-methoxyphenylsulfonamido)pyridin-4-yl)benzo[d]thiazol-2-yl)acetamide], with 67.1 nM; and `COc1ccc(S(=O)(=O)Nc2cccc(-c3ccc4nc(NC(C)=O)sc4c3)c2)cc1` [Example 260, N-(6-(3-(4-methoxyphenylsulfonamido)phenyl)benzo[d]thiazol-2-yl)acetamide], with 94.8 nM.
